# Earlier results in patent publication US20140023701A1, “Method and Composition for Ameliorating the Effects tor a Subject Exposed to Radiation or Other Sources of Oxidative Stress” (priority 2011, published 2014).
# Tested on: Human
# Details: no observed adverse event level, most sensitive subgroup
smiles,measurement,value
CC1=C(/C=C/C(C)=C/C=C/C(C)=C/C=C/C=C(C)/C=C/C=C(C)/C=C/C2=C(C)CCCC2(C)C)C(C)(C)CCC1 [Beta-carotene],Human NOAEL,25 mg
